The record followed here is publication PMC3898987 (Bioorganic & Medicinal Chemistry, 2013).

By UniProt entry, the sequences of proteins in these tests, tags left out. Residues count along the entry.
UniProt P46098, 24-478 Y68A: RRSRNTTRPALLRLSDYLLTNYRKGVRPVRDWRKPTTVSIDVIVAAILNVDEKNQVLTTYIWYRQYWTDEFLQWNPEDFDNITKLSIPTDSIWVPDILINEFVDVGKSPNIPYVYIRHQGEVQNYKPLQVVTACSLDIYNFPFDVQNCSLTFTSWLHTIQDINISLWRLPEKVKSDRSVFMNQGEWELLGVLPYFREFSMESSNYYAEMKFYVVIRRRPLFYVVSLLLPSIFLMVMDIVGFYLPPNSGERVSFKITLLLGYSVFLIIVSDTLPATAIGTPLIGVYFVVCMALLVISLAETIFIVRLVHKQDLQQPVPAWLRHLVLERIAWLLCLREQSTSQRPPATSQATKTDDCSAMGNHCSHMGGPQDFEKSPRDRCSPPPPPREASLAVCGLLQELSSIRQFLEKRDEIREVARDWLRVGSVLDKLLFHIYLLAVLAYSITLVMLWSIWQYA

The assay addresses 5-HT3A receptor Y73A (Homo sapiens, UniProt P46098, Y68A). Description: FlexStation membrane potential dye functional assay, HEK293 cells. The following applies: palonosetron inhibition, 5-HT3A Y73A vs WT 5-HT3A. The format is cell-based. The arrangement: expressed in transfected cells; host or cells: HEK293.

Structures are written as SMILES.

For the compound `O=C1c2cccc3c2[C@H](CCC3)CN1[C@@H]1CN2CCC1CC2` [Palonosetron], the “increase in IC50 compared to wild type receptors” value is about 15 fold.
